Data reported in paper PMC6326798.

T1: non-tagged hsCENP-K, Q9BS16
T1 chain: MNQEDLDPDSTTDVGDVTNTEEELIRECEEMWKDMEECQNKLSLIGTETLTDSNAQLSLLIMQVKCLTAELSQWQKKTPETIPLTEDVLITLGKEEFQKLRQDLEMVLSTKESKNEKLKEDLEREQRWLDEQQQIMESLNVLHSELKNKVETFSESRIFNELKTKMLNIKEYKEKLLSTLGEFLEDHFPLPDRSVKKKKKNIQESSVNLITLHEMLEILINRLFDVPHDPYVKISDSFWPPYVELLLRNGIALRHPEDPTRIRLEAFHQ

T2: GST-hsCENP-K^ΔN85, Q9BS16
T2 chain: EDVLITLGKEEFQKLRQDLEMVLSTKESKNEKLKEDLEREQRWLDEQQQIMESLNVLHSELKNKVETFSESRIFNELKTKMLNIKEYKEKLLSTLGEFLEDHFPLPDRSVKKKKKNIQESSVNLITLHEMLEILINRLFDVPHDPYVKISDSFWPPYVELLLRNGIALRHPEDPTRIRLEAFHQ

B1: GFP-hsCENP-H WT, Q9H3R5 L219A; L233A (protein)
chain: MEEQPQMQDADEPADSGGEGRAGGPPQVAGAQAACSEDRMTLLLRLRAQTKQQLLEYKSMVDASEEKTPEQIMQEKQIEAKIEDLENEIEEVKVAFEIKKLALDRMRLSTALKKNLEKISRQSSVLMDNMKHLLELNKLIMKSQQESWDLEEKLLDIRKKRLQLKQASESKLLEIQTEKNKQKIDLDSMENSERIKIIRQNLQMEIKITTVIQHVFQNAILGSKVNWAEDPAAKEIVLQLEKNVDMM
B2: GFP-hsCENP-H WT, Q9H3R5 K234E; L238A (protein)
chain: B1 chain with A219L, A233L, K234E, L238A
B3: hsCENP-H WT (recombinant, GST pull-down), Q9H3R5 L233A (protein)
chain: B1 chain with A219L
B4: hsCENP-H WT (recombinant, GST pull-down), Q9H3R5 V225A; L233A (protein)
chain: B1 chain with A219L, V225A
B5: hsCENP-H WT (recombinant, GST pull-down), Q9H3R5 L219A; L233A (protein)
chain: B1 chain
B6: hsCENP-H WT (recombinant, GST pull-down), Q9H3R5 K234E; L238A (protein)
chain: B1 chain with A219L, A233L, K234E, L238A
B7: hsCENP-H WT (recombinant, GST pull-down), Q9H3R5 L238A (protein)
chain: B1 chain with A219L, A233L, L238A
B8: hsCENP-H WT (recombinant, GST pull-down), Q9H3R5 L219A (protein)
chain: B1 chain with A233L
B9: hsCENP-H WT (recombinant, GST pull-down), Q9H3R5 L219A; V225A (protein)
chain: B1 chain with V225A, A233L
B10: hsCENP-H WT (recombinant, GST pull-down), Q9H3R5 V225A (protein)
chain: B1 chain with A219L, V225A, A233L
B11: hsCENP-H WT (recombinant, GST pull-down), Q9H3R5 K234E (protein)
chain: B1 chain with A219L, A233L, K234E

Biological target: T1, non-tagged hsCENP-K, Q9BS16
Experiment: co-immunoprecipitation (anti-GFP IP, western blot quantification)
Conditions: chain shown with the change; HeLa Tet-On cells co-transfected with GFP-hsCENP-H, non-tagged hsCENP-K and MYC-hsCENP-I; parent: est. 1.0; read off a plot
With B1 the ratio to parent was 0.66. B2 was tested, and the ratio to parent was 0.91.

Biological target: T2, GST-hsCENP-K^ΔN85, Q9BS16
Experiment: GST pull-down
Conditions: chain shown with the change;; parent: est. 1.0; read off a plot
In the case of B3, the ratio to parent is reported as 0.69. For B4, the ratio to parent was 0.46. Work on B5 yielded a ratio to parent of 0.35. With B6 the ratio to parent was 1.1. For B7, the ratio to parent was 1.1. Work on B8 yielded a ratio to parent of 0.65. B9 showed a ratio to parent of 0.33. B10 was tested, and the ratio to parent was 0.7. For B11, the ratio to parent was 1.1.

Residue numbers refer to the chain shown, from its start. Numbers in names are those of the source.
